Earlier results as cited in US6011000A, “Compositions for the treatment of blood disorders” (priority 1995, dated 2000).

Tested on: fetal globin synthesis in tissue culture cells
Conditions: cited from earlier work

B1: IL3: interleukin-3 (IL3) (protein, UniProt P08700 20-152, looked up)
Interleukin-3: APMTQTTPLKTSWVNCSNMIDEIITHLKQPPLPLLDFNNLNGEDQDILMENNLRRPNLEAFNRAVKSLQNASAIESILKNLLPCLPLATAAPTRHPIHIKDGDWNEFRRKLTFYLKTLENAQAQQTTLSLAIF
  fetal globin synthesis: increase fetal globin synthesis in tissue culture cells
